This is an account of results in PMC10119890 (British journal of pharmacology, 2021).

Protein sequences, listed by entry. Tags and fused reporters are not part of them.
UniProt O95800, whole entry: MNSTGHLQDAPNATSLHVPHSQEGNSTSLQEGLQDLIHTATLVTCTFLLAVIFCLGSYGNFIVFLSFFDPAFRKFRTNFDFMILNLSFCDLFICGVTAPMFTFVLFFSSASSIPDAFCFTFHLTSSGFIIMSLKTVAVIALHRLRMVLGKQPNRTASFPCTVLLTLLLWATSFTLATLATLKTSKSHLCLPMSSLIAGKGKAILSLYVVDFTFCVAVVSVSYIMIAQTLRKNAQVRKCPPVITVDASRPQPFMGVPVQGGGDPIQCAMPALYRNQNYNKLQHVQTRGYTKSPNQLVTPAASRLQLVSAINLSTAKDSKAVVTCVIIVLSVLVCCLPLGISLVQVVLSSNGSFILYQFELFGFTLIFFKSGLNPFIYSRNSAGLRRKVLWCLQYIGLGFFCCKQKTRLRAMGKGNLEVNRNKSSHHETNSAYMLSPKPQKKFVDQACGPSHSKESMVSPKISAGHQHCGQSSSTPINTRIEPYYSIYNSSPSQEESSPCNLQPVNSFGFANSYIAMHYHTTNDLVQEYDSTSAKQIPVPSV

The experiment addresses GPR75 (Homo sapiens, UniProt O95800). Nature of the experiment: SPR on immobilized recombinant GPR75. Type of experiment: binding.

Each structure is given as a SMILES string.

On to `O=C(O)CCC/C=C\C/C=C\C/C=C\C/C=C\CCCCCO` [20-HETE, 20-hydroxy-5,8,11,14-eicosatetraenoic acid], for which the Kd amounted to 156 pM.
